# Experimental data from article PMC11472320, “Computationally Driven Discovery of a BCR-ABL1 Kinase Inhibitor with Activity in Multidrug-Resistant Chronic Myeloid Leukemia” (Journal of Medicinal Chemistry, 2024).
# Sequences of proteins named here, by UniProt entry; tags and fusion partners are left off. A change or cut given only in a name is not applied to a line headed by its entry. Residues count along the entry.
# UniProt P27037, 20-513: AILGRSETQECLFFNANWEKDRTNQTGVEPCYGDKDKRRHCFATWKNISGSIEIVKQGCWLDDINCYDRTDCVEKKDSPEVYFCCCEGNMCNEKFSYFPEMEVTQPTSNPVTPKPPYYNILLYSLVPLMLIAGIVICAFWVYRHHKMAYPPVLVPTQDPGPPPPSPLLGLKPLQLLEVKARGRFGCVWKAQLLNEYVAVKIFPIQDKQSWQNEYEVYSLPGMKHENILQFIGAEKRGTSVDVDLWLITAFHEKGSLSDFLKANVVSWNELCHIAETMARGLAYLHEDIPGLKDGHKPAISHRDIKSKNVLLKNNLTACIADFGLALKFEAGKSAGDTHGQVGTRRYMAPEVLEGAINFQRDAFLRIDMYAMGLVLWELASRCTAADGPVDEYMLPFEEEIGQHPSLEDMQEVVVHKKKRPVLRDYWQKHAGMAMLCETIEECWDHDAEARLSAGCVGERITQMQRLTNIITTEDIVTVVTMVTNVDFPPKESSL
# UniProt Q9Y2K2: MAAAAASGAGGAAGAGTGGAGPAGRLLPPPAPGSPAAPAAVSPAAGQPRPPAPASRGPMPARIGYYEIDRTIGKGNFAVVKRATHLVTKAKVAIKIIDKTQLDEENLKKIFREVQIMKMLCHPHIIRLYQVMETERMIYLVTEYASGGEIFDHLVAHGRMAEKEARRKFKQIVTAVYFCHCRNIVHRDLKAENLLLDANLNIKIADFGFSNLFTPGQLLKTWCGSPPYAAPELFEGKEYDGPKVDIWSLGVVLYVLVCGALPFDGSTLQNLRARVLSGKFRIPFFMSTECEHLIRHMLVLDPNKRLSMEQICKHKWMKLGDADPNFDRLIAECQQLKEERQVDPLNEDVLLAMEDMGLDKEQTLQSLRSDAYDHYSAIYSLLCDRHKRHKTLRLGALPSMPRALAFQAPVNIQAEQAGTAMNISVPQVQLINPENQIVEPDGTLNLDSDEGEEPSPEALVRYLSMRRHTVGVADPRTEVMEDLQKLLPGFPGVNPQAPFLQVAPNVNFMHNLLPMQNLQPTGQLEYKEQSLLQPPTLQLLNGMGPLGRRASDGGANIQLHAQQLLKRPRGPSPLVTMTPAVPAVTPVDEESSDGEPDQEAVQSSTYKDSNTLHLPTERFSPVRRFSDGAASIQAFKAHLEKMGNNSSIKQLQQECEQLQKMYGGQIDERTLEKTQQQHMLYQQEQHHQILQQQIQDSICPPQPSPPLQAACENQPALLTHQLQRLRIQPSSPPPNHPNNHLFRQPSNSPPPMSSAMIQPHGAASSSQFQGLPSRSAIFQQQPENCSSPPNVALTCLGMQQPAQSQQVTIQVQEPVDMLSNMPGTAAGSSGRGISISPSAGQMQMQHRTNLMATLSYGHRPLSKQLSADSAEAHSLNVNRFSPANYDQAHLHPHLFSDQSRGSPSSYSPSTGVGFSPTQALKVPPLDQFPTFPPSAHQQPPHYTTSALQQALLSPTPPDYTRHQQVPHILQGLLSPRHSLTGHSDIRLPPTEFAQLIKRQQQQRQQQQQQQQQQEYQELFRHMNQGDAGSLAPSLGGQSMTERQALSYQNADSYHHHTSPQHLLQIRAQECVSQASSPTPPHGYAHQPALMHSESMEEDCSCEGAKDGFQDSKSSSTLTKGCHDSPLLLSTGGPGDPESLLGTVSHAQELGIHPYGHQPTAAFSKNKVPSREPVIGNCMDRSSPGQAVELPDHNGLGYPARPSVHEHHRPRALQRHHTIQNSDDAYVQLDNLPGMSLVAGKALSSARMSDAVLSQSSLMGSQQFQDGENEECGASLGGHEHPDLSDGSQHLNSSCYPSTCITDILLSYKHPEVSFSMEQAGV
# UniProt P36897, 34-503: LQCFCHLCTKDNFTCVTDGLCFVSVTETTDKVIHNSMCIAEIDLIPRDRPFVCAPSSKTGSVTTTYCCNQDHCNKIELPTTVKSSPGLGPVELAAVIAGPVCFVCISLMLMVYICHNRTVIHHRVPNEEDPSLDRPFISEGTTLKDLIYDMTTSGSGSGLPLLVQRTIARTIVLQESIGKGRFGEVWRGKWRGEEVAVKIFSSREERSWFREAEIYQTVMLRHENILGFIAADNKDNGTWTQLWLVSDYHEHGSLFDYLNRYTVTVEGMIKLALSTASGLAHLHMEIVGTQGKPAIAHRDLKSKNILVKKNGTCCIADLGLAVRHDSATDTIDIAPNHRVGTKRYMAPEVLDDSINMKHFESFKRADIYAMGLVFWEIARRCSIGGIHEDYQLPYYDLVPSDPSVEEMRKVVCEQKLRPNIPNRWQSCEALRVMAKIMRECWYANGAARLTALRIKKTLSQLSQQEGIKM
# UniProt O00329: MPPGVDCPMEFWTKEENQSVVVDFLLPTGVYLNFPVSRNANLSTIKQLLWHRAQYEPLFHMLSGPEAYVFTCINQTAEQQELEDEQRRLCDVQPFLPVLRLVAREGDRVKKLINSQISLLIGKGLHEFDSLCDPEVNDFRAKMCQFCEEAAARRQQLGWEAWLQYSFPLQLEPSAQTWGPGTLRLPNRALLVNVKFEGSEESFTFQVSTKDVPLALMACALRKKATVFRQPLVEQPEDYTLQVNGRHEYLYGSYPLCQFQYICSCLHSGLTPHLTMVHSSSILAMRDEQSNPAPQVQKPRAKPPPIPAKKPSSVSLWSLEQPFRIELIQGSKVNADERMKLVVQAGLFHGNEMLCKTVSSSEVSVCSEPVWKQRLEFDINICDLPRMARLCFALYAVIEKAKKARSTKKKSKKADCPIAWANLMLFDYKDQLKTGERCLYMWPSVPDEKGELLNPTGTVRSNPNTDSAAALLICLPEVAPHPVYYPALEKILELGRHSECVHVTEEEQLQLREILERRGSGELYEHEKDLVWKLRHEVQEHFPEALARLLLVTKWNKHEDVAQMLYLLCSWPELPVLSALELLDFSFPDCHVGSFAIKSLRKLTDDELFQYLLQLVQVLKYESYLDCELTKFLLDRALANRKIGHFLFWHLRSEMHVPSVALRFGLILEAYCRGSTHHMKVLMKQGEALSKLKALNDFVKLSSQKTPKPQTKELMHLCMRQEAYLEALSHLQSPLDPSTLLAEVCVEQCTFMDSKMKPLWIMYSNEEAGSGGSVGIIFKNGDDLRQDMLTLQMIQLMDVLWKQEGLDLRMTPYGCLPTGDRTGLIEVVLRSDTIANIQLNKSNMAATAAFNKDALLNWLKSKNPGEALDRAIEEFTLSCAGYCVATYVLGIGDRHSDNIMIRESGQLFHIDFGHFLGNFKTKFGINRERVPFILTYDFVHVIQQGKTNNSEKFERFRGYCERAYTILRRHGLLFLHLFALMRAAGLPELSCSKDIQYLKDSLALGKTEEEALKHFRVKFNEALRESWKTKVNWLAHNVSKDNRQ
# UniProt Q92630: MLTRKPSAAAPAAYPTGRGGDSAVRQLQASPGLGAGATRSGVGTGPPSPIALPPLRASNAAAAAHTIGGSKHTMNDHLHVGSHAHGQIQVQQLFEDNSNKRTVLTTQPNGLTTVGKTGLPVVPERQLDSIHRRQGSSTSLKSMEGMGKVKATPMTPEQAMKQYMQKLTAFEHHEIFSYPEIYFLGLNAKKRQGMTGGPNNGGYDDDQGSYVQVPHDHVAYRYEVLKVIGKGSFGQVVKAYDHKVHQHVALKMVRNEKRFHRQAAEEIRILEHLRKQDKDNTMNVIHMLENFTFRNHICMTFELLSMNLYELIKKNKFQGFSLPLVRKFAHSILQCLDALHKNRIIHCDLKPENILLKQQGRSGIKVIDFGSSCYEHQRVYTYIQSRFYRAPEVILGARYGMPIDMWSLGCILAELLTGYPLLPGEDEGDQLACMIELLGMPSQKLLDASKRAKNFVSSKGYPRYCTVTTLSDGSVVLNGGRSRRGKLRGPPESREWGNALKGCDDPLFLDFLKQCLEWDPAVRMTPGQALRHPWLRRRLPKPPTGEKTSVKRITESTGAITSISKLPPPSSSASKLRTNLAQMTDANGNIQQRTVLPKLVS
# UniProt P54646: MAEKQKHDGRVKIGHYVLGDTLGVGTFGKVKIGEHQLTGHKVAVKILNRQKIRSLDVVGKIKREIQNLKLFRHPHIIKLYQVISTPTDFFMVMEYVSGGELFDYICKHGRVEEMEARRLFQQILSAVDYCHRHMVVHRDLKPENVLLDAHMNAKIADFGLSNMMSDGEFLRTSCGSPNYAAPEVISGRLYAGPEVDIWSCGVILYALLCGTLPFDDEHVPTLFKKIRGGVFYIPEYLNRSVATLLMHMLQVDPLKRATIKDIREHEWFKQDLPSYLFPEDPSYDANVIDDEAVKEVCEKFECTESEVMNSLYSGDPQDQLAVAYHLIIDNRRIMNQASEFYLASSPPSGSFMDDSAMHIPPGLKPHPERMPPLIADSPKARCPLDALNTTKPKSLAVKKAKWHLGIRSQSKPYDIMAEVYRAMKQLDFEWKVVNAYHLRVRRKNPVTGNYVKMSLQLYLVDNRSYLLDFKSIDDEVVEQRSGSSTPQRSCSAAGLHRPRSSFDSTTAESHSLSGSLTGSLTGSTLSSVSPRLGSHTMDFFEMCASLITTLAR
# UniProt P35916, 25-1363: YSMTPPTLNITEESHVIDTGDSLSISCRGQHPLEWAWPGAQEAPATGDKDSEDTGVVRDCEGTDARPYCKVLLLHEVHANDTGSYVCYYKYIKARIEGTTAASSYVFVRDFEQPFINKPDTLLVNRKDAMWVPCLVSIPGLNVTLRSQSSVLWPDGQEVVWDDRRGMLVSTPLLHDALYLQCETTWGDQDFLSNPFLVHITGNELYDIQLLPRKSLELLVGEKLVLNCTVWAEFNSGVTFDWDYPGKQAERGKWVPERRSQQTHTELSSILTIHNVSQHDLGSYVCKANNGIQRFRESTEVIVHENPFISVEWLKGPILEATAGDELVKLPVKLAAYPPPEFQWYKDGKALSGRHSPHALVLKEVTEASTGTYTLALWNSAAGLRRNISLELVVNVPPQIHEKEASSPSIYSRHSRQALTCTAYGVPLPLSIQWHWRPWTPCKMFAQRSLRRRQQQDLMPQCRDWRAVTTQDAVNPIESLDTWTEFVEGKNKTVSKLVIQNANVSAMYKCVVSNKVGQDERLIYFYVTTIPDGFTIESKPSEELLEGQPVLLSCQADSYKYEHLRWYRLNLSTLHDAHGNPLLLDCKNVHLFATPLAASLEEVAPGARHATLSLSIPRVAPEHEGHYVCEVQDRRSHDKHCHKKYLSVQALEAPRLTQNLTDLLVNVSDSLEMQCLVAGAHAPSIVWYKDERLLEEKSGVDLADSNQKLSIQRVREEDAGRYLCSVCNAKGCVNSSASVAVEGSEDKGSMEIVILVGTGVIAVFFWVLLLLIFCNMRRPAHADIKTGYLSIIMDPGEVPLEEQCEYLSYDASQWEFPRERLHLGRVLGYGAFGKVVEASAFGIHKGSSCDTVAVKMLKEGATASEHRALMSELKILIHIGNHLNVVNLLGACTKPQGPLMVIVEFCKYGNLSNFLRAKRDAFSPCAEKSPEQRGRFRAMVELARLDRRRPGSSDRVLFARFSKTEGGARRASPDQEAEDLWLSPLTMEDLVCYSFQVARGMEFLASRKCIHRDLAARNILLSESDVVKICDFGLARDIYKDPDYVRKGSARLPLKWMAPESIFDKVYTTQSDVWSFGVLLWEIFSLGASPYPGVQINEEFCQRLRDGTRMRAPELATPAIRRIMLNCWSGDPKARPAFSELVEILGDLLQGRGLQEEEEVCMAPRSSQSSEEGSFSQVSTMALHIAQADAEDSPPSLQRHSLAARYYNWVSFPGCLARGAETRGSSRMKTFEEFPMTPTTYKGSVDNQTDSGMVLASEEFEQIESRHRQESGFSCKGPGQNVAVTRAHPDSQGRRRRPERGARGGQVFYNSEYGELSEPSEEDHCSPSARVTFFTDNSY
# UniProt O00506, whole entry: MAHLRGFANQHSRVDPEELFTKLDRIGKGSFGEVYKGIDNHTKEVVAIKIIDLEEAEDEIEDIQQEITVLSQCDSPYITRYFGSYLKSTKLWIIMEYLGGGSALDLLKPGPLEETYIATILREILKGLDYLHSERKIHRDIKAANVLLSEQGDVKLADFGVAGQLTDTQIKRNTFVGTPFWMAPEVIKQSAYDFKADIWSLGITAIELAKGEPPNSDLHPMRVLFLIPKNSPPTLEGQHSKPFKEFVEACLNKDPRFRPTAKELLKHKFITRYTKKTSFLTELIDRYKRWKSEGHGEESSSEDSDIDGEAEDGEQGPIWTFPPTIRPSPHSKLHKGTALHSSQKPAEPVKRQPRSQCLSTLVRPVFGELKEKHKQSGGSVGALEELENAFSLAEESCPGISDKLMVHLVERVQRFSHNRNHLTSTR
# UniProt Q6P2M8: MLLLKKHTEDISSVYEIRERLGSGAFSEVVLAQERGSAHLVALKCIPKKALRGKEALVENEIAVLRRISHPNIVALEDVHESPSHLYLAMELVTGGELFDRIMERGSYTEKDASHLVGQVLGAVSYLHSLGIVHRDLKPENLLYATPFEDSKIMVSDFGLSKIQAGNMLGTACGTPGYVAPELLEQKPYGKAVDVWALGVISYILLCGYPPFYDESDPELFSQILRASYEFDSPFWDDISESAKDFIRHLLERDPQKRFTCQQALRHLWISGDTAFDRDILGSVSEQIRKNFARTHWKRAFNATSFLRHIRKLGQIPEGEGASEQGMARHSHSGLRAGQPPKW
# Assays:
# Assay in all cases: biochemical
# Settings in all cases: read-out: Percent Control
# GRK4 = GRK4 (Homo sapiens, UniProt P32298)
# DMPK2 = DMPK2 (Homo sapiens, UniProt Q6DT37)
# ACVR2A = ACVR2A (Homo sapiens, UniProt P27037)
# WEE2 = WEE2 (Homo sapiens, UniProt P0C1S8)
# LIMK1 = LIMK1 (Homo sapiens, UniProt P53667)
# EGFR(G719C) = EGFR(G719C) (Homo sapiens, UniProt P00533, G719C)
# MST1 = MST1 (Homo sapiens, UniProt Q13043)
# LRRK2 = LRRK2 (Homo sapiens, UniProt Q5S007)
# FLT3(D835Y) = FLT3(D835Y) (Homo sapiens, UniProt P36888, D835Y)
# TXK = TXK (Homo sapiens, UniProt P42681)
# MAP3K15 = MAP3K15 (Homo sapiens, UniProt Q6ZN16)
# QSK = QSK (Homo sapiens, UniProt Q9Y2K2)
# TIE1 = TIE1 (Homo sapiens, UniProt P35590)
# TGFBR1 = TGFBR1 (Homo sapiens, UniProt P36897)
# HPK1 = HPK1 (Homo sapiens, UniProt Q92918)
# ASK1 = ASK1 (Homo sapiens, UniProt Q99683)
# PIK3CD = PIK3CD (Homo sapiens, UniProt O00329)
# STK16 = STK16 (Homo sapiens, UniProt O75716)
# TAK1 = TAK1 (Homo sapiens, UniProt O43318)
# DYRK2 = DYRK2 (Homo sapiens, UniProt Q92630)
# ICK = ICK (Homo sapiens, UniProt Q9UPZ9)
# PHKG2 = PHKG2 (Homo sapiens, UniProt P15735)
# STK39 = STK39 (Homo sapiens, UniProt Q9UEW8)
# AMPK-alpha2 = AMPK-alpha2 (Homo sapiens, UniProt P54646)
# BRAF(V600E) = BRAF(V600E) (Homo sapiens, UniProt P15056, V600E)
# [1] = molecular target: RSK2(Kin.Dom.1-N-terminal) (Homo sapiens, UniProt P51812)
# PCTK1 = PCTK1 (Homo sapiens, UniProt Q00536)
# CDC2L1 = CDC2L1 (Homo sapiens, UniProt P21127)
# PIM2 = PIM2 (Homo sapiens, UniProt Q9P1W9)
# FLT4 = FLT4 (Homo sapiens, UniProt P35916)
# CAMK2D = CAMK2D (Homo sapiens, UniProt Q13557)
# MAP4K5 = MAP4K5 (Homo sapiens, UniProt Q9Y4K4)
# MAP3K4 = MAP3K4 (Homo sapiens, UniProt Q9Y6R4)
# PRKR = PRKR (Homo sapiens, UniProt P19525)
# STK36 = STK36 (Homo sapiens, UniProt Q9NRP7)
# CHEK2 = CHEK2 (Homo sapiens, UniProt O96017)
# YSK1 = YSK1 (Homo sapiens, UniProt O00506)
# MST4 = MST4 (Homo sapiens, UniProt Q9P289)
# CSNK1G2 = CSNK1G2 (Homo sapiens, UniProt P78368)
# DAPK3 = DAPK3 (Homo sapiens, UniProt O43293)
# [2] = molecular target: RPS6KA4(Kin.Dom.2-C-terminal) (Homo sapiens, UniProt O75676)
# CAMK1B = CAMK1B (Homo sapiens, UniProt Q6P2M8)
compound,measurement,setting,value
"COc1cc2c(Nc3ccc(Cl)c(OC)n3)c(C#N)cnc2cc1OCCON1CCN(C)CC1 [16a, 4-((5-Chloro-6-methoxypyridin-2-yl)amino)-6-methoxy-7-(2-((4-methylpiperazin-1-yl)oxy)ethoxy)quinoline-3-carbonitrile]",remaining activity at 1 µM,GRK4,18%
same,remaining activity at 1 µM,DMPK2,31%
same,remaining activity at 1 µM,ACVR2A,100%
same,remaining activity at 1 µM,WEE2,1.1%
same,remaining activity at 1 µM,LIMK1,97%
same,remaining activity at 1 µM,EGFR(G719C),0.7%
same,remaining activity at 1 µM,MST1,20%
same,remaining activity at 1 µM,LRRK2,90%
same,remaining activity at 1 µM,FLT3(D835Y),13%
same,remaining activity at 1 µM,TXK,2.3%
same,remaining activity at 1 µM,MAP3K15,100%
same,remaining activity at 1 µM,QSK,5.5%
same,remaining activity at 1 µM,TIE1,81%
same,remaining activity at 1 µM,TGFBR1,100%
same,remaining activity at 1 µM,HPK1,0.1%
same,remaining activity at 1 µM,ASK1,100%
same,remaining activity at 1 µM,PIK3CD,74%
same,remaining activity at 1 µM,STK16,91%
same,remaining activity at 1 µM,TAK1,0.1%
same,remaining activity at 1 µM,DYRK2,92%
same,remaining activity at 1 µM,ICK,100%
same,remaining activity at 1 µM,PHKG2,76%
same,remaining activity at 1 µM,STK39,79%
same,remaining activity at 1 µM,AMPK-alpha2,60%
same,remaining activity at 1 µM,BRAF(V600E),100%
same,remaining activity at 1 µM,[1],64%
same,remaining activity at 1 µM,PCTK1,100%
same,remaining activity at 1 µM,CDC2L1,100%
same,remaining activity at 1 µM,PIM2,100%
same,remaining activity at 1 µM,FLT4,67%
same,remaining activity at 1 µM,CAMK2D,47%
same,remaining activity at 1 µM,MAP4K5,0.4%
same,remaining activity at 1 µM,MAP3K4,2.6%
same,remaining activity at 1 µM,PRKR,64%
same,remaining activity at 1 µM,STK36,5.5%
same,remaining activity at 1 µM,CHEK2,0.75%
same,remaining activity at 1 µM,YSK1,35%
same,remaining activity at 1 µM,MST4,4%
same,remaining activity at 1 µM,CSNK1G2,92%
same,remaining activity at 1 µM,DAPK3,83%
same,remaining activity at 1 µM,[2],91%
same,remaining activity at 1 µM,CAMK1B,91%
